Target: Protease (Human immunodeficiency virus 1, UniProt Q9YQ12)
Assay: Binding affinity to HIV1 protease

Cc1cccc(C)c1OCC(=O)N[C@@H](Cc1ccccc1)[C@@H](O)C[C@H](Cc1ccccc1)NC(=O)[C@H](C(C)C)N1CCCNC1=O [LOPINAVIR]
Kd: 1.3 pM
